# Test results reported in PubChem BioAssay AID1346985 (Tox21, 2019).
# This is a selection; strong and weak results do not stand in their true shares. Records with an inconclusive call do not appear. The source made the active and inactive calls. The call rests on the fitted dose curve; in most records, active means well fitted activation curve with a large enough effect in the repeat runs; inconclusive means weak or mixed curves; inactive means flat fitted curve, though single readings scatter.
# Target: Nuclear receptor subfamily 1 group I member 2 (Homo sapiens) (UniProt O75469)
# Experiment: Human pregnane X receptor (PXR) activation by small molecules, qHTS assay; further: nearly all actives have a fitted effect of over 40% in size
# Settings: DPX-2 HepG2 CYP3A4-luciferase, 24 h; at 38.3 µM (top of the series) unless noted
# Excerpt: National Center for Advancing Translational Sciences [NCATS]
# NIH Chemical Genomics Center [NCGC]
# U.S. Environmental Protection Agency [EPA]
# National Institutes of Environmental Health Sciences [NIEHS]
# National Toxicology Program [NTP]
# The Pregnane X receptor (PXR), a ligand activated nuclear receptor plays a critical role in the regulation of genes involved in drug metabolism and transporters. Activation of PXR may be involved in the unwanted adverse drug-drug interactions. […] Therefore, identification of compounds with the potential for PXR activation can be of importance in improving the efficacy of drugs with less toxicity and avoiding drug-drug interactions.
# DPX-2 (Puracyp, Inc.) cell lines, used for screening against human PXR activation has HepG2 cells co-transfected with a PXR response element and a luciferase construct containing CYP3A4 promoter. Increase in luciferase activity can be used to identify the compounds that activate the PXR pathway.
# DPX-2 cells were dispensed at 2,000 cells per well in 5uL of assay medium into white, solid-bottom 1536-well plates using a Multidrop Combi dispenser (Thermo Scientific). The assay plates were incubated at 37C for 5hr before transferring 23nL of test compounds dissolved in DMSO and positive control via Pintool station (Wako). The assay plates were incubated at 37C for 24hr. Then 5ul One-Glo assay reagent (Promega) was added to each plate by a Flying Reagent Dispenser (FRD, Aurora Discovery) and following 30 min incubation at room temperature, luciferase activity was quantified on a ViewLux plate reader (Perkin Elmer).
# On the % scale 0 is the no-effect control and ±100 the full control effect.
row,SMILES,activation
1,C/C1=C2N=C(/C=C3N=C(/C(C)=C4\[N-][C@@](C)([C@@H]5N=C1[C@](C)(CCC(=O)NC[C@@H](C)OP(=O)([O-])O[C@H]1[C@@H](O)[C@@H](n6cnc7cc(C)c(C)cc76)O[C@@H]1CO)[C@H]5CC(N)=O)[C@@](C)(CC(N)=O)[C@@H]4CCC(N)=O)[C@@](C)(CC(N)=O)[C@@H]\3CCC(N)=O)C(C)(C)[C@@H]/2CCC(N)=O.[C-]#N.[Co+3],inactive: -2.8% [at 17.1 µM]
2,CC(C)OP(=O)(F)OC(C)C,inactive: 8.59%
3,OCCSCCO,inactive: -9.81%
4,CN(C)CCS,inactive: 2.56%
5,O=[N+]([O-])[O-].[NH4+],inactive: -2.89%
6,O=[N+]([O-])c1cccc([N+](=O)[O-])c1,inactive: 7.83%
7,O=[N+]([O-])OCC(CO[N+](=O)[O-])(CO[N+](=O)[O-])CO[N+](=O)[O-],inactive: 6.96%
